# Binding of CDR-mutated scFvs to a peptide of the spike HR2 region

The target is the same throughout: PDVDLGDISGINAS, from the HR2 region of SARS-CoV-2 spike.

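This is the validation round: designs drawn from the data on random variants, tested in the same kind of assay. Their group label is 14L_En_HC (En: ensemble of fine-tuned language models; HC: hill climbing; a sequence that several methods proposed may carry one label only). The scFvs were displayed on barcoded MATa yeast, the peptide on MATalpha yeast. The frequency of each diploid, read from paired DNA barcodes, reflects how well the two displayed proteins bind. Scores were corrected for input abundance and mapped to Kd with protein pairs of known affinity run in the same pool. There are six technical replicates.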

Parent scFv Ab-14: VH joined to VL by the linker GGGGSGGGGSGGGGS. Changes lie in the light chain CDRs alone.
VH: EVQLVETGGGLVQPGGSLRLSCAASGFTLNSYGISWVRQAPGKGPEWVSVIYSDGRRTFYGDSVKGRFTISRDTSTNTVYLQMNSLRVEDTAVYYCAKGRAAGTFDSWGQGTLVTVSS
VL: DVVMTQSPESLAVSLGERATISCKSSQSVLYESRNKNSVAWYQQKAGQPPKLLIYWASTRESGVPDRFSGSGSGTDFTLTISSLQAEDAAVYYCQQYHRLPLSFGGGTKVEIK

The parent's light chain CDRs are KSSQSVLYESRNKNSVA, WASTRES, QQYHRLPLS; each variant's own CDRs replace them letter for letter. Affinities are written as log10 Kd with Kd in nM; a lower number is a better binder. Replicates are averaged; those with no signal do not enter the mean. An entry "nd" has no value in the source: the pair was not observed among the diploids in that replicate. This suggests poor binding but is not conclusive. The parent sequence was in this pool as ten entries: three were never detected, three once, and four in most replicates, with averages from 0.34 to 2.37. The range of this assay differs from that of the first round, and the authors advise against merging the two. The authors averaged sequences with at least three values out of six and counted those with two or fewer as poor binders. As a blank, each scFv also met three strains without target: over all light chain designs, 4% of these pairings were detected, typically at 2.64 and seldom below 1.59. Also given: how often the same scFv was detected with the empty control strains, with their mean in brackets.

CDR-L1	CDR-L2	CDR-L3	log10 Kd (nM) by replicate	log10 Kd (nM), mean	signal with controls
HISMSMNYLSRNKNSIA	EESTRES	QQYARLPLS	0.37 -0.04 0.01 -0.17 -0.19 -0.13	-0.03	2 of 18 (2.59)
TISQMMLMQTSHKNSVA	GEETRYN	QQYHHLPLS	0.59 0.43 0.37 0.65 0.71 0.90	0.61	0 of 18
KLGTVTSYEMQNKNSVA	QMTTRES	QQYHRLPLS	0.18 0.19 0.20 -0.01 0.15 0.20	0.15	2 of 18 (2.48)
KIMQTLNYSQFNVSNVA	GQETRER	QSYHRLPLS	nd 2.06 2.07 1.97 3.16 2.52	2.36	0 of 18
KISHNFLIESRNLNSVA	EMTTREY	QSYDRLPLS	2.46 1.91 1.88 2.62 nd nd	2.22	1 of 18 (3.23)
HISQMVMYGTCNKNNVA	QVSTREE	QQYHRLPLS	0.48 0.44 0.41 0.36 0.25 1.01	0.49	0 of 18
HISMVMNYLSRNKNSIA	EESTRED	QQYHRLPLS	0.42 0.32 0.43 0.33 0.45 0.70	0.44	1 of 18 (2.96)
KLLQAVVGETYNKNSVA	HNSTRED	QEYARLPLS	nd nd nd nd nd nd	nd	1 of 18 (1.55)
KLRQVTGYETYNKNSVA	QTSTRAS	QDYHRLPLS	1.52 1.52 2.35 2.19 2.17 1.86	1.93	0 of 18
KVSQSVMVLQRNKNSVA	DNSTSGS	QQYHRLPLS	nd nd 2.65 nd nd nd	2.65	2 of 18 (2.20)
TIGQSVHETSKIKNSVA	HASTRED	QQYDRLPLS	0.45 -0.01 0.13 -0.36 0.11 0.11	0.07	0 of 18
KISFNMGETQRNKNSVA	EVSTVPS	QQYWRLPLS	0.96 0.80 0.48 0.53 1.10 0.65	0.75	0 of 18
KLTQSTHIESFNKNNVA	EMTTRES	QSYDRLPLS	1.51 1.72 1.04 1.62 1.53 1.53	1.49	0 of 18
KLSMQYRYESENKNSIA	ELVTRMS	QQYHRLPLS	0.39 2.06 0.84 0.74 0.93 0.47	0.91	0 of 18
KLGQSAAMTSRNKNNVA	DLNERER	QQYHRLPLS	-0.11 -0.14 -0.33 -0.82 -0.34 -0.13	-0.31	0 of 18
QLYAVQDMTSKNSNSVA	EQSTREN	QQYHRLPLS	1.13 1.11 0.75 0.58 0.43 0.51	0.75	0 of 18
MFSSLMEYGMRYKNSVA	QASTREN	QQYHWLPLS	nd nd nd nd nd nd	nd	1 of 18 (1.91)
KLSQVTHSESRNKNSIA	EMVTRED	QQYDRLPLS	1.28 0.65 0.76 0.87 1.10 1.09	0.96	1 of 18 (3.30)
KLGMSVDYMSATHSSVA	QTSTREE	QQYHRLPLS	0.40 0.28 0.05 0.33 0.26 0.21	0.25	0 of 18
KLRMITGYESRNKDSIA	DNSTRGR	QQYHRLPLS	1.27 0.99 0.97 1.37 1.36 1.03	1.16	2 of 18 (3.02)
MFSQSVMYGSFYRNSVA	QTSTRET	QQYDRLPLS	1.34 1.43 0.69 1.15 0.93 0.83	1.06	0 of 18
KLYAVTMLESHDKNSIA	DLSTRGN	QQYHRLPLS	1.03 0.90 0.69 0.91 1.04 0.83	0.90	0 of 18
TLGQSVLMESRNKNNVA	QMSTREK	QQYDRLPLS	0.11 -0.12 0.12 -0.15 -0.20 0.15	-0.02	0 of 18
TISQSWFIESHNKNNVA	EMTTREN	QDYDRLPLS	1.22 1.72 1.48 0.81 2.18 2.22	1.60	0 of 18
KLSVSWLFESIEKNSVA	ERSTREN	QDYNRLPLS	0.91 0.40 1.13 0.92 1.04 1.49	0.98	3 of 18 (2.71)
KLSQYVGGESRNKSSLA	DNSTRET	QQYHRLPLS	2.18 1.68 1.12 1.45 1.72 1.67	1.64	1 of 18 (2.23)
KLYMNVGTMSHNKQSIA	DMERRED	QQYHRLPLS	0.65 0.62 0.77 0.49 0.96 0.79	0.71	0 of 18
NVGQSMDGEYRNKNSVA	HQSTRED	QHYHRLPLS	1.55 1.96 1.39 1.57 2.34 1.90	1.79	0 of 18
KLSMSMLMESFHKNSVA	ENSTRES	QHYHRLPLS	nd nd nd nd nd nd	nd	0 of 18
KLSQSVLFWGSAINSVA	EMETREY	QQYDRLPLS	1.99 1.27 1.47 1.30 1.61 2.75	1.73	0 of 18
MLGMTVMQGMYSRNNVA	QEETRAD	QQYHHLPLS	1.11 0.95 1.05 0.91 1.32 0.83	1.03	1 of 18 (2.97)
KLSQSVLFWGGAINSVA	EMETREY	QQYDRLPLS	1.36 1.99 0.73 1.27 1.63 2.10	1.51	0 of 18
TISQSTYWESRNKNSVA	QTSTRLE	QDYDRLPLS	1.43 3.21 nd 1.97 1.97 3.30	2.38	0 of 18
KLLQEVQGRSQHRNSVA	HNSTRED	QQYDRLPLI	2.48 nd nd 3.13 2.56 nd	2.72	4 of 18 (2.54)
KLLQTVMNETRHRNNVA	HMTTRED	QQYFRLPLS	1.74 1.72 1.88 2.11 1.51 1.83	1.80	4 of 18 (3.13)
KLREVQHLETKQRDNVA	DNDTREY	QDYYRLPLS	nd nd nd nd nd nd	nd	0 of 18
KISMTYRYESQASNSIA	EMTTREE	QSYHRLPLS	1.24 0.88 1.32 1.13 1.01 1.42	1.17	1 of 18 (2.31)
KLTMMYQHTSRNKNNIA	ERSTREE	QQYHHLPLS	1.85 0.97 0.89 0.73 1.13 1.34	1.15	0 of 18
KLSATYRFESQNKNSIA	EMTTREK	QCYHRLPLS	nd 0.65 0.94 1.44 0.59 0.26	0.78	0 of 18
KLSEMYQHTSRNKNNIA	ERSTRES	QQYHHLPLS	0.16 0.05 -0.16 -0.07 -0.14 -0.04	-0.03	2 of 18 (3.31)
MLGMTVMQGMVSRNNVA	QEETRAN	QQYHHLPLS	1.57 2.99 nd nd nd 1.69	2.08	2 of 18 (2.10)
HISMMVGTKGCNKNSVA	NAETRED	QQYHRLPLS	-0.78 0.44 -0.63 0.27 0.65 -0.14	-0.03	0 of 18
KLGGVTEYEMRNINSVA	QMTTRES	QQYHRLPLS	0.31 0.30 -0.01 0.39 0.44 0.64	0.34	1 of 18 (2.41)
KIGGVTNGISFSKNSVA	EQSTRED	QQYDRLPLS	0.68 0.50 0.48 0.60 0.51 0.69	0.58	2 of 18 (2.33)
ILSQSVLMGMHTGNSVA	QATMRFN	QQYHRLPLM	1.27 1.51 1.17 1.45 1.49 2.60	1.58	0 of 18
KISQLVNFEGKTKNSVA	QMSTRES	QQYDRLPLS	0.64 0.56 1.04 1.41 0.58 0.78	0.83	3 of 18 (2.98)
KLGQMTAIESRNLNSVA	QMDTREE	QQYHRLPLS	1.54 1.46 1.13 0.76 1.61 0.89	1.23	0 of 18
KLSTVTEYESRNKNNVA	DLTTRGS	QDYHRLPLS	0.54 0.32 -0.10 -0.12 0.09 -0.10	0.10	0 of 18

The opening 5 entries, copied out:

{"CDR-L1": "HISMSMNYLSRNKNSIA", "CDR-L2": "EESTRES", "CDR-L3": "QQYARLPLS", "log10 Kd (nM) by replicate": "0.37 -0.04 0.01 -0.17 -0.19 -0.13", "log10 Kd (nM), mean": "-0.03", "signal with controls": "2 of 18 (2.59)"}
{"CDR-L1": "TISQMMLMQTSHKNSVA", "CDR-L2": "GEETRYN", "CDR-L3": "QQYHHLPLS", "log10 Kd (nM) by replicate": "0.59 0.43 0.37 0.65 0.71 0.90", "log10 Kd (nM), mean": "0.61", "signal with controls": "0 of 18"}
{"CDR-L1": "KLGTVTSYEMQNKNSVA", "CDR-L2": "QMTTRES", "CDR-L3": "QQYHRLPLS", "log10 Kd (nM) by replicate": "0.18 0.19 0.20 -0.01 0.15 0.20", "log10 Kd (nM), mean": "0.15", "signal with controls": "2 of 18 (2.48)"}
{"CDR-L1": "KIMQTLNYSQFNVSNVA", "CDR-L2": "GQETRER", "CDR-L3": "QSYHRLPLS", "log10 Kd (nM) by replicate": "nd 2.06 2.07 1.97 3.16 2.52", "log10 Kd (nM), mean": "2.36", "signal with controls": "0 of 18"}
{"CDR-L1": "KISHNFLIESRNLNSVA", "CDR-L2": "EMTTREY", "CDR-L3": "QSYDRLPLS", "log10 Kd (nM) by replicate": "2.46 1.91 1.88 2.62 nd nd", "log10 Kd (nM), mean": "2.22", "signal with controls": "1 of 18 (3.23)"}

Reference: Li et al. 2023, doi:10.1038/s41467-023-39022-2. File: FLAb, binding data.